Key:
[1] = target: T1, transmembrane TNFα (mTNFα) expressed on T3-33 cells (UniProt P01375 1-233); assay: Cell-based ELISA on T3-33 cells expressing mTNFα. Bound antibody detected with HRP mouse anti-human IgG1 and TMB, OD 450 nm. The value is parameter C (midpoint) of the printed 4-P fit, with A 0.0769, B 1.26, D 0.416. The unit comes from the x axis 'Remicade ng/ml'.
T1 construct: whole, on cells; The CDC assay says only 'cells expressing mTNFα'; also called T3-33 (TNFα-expressing) cells; cells expressing mTNFα

Amino acid sequences for entries named in this document (tags omitted). Residues count along the entry.
UniProt P01375, whole entry: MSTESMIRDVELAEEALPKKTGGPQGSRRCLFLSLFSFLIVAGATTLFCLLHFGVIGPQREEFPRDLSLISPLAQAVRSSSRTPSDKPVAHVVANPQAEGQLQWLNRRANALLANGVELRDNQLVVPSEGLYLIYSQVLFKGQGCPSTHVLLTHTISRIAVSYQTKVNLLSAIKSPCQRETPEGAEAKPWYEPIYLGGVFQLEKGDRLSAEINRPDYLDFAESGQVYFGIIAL
UniProt P01375, 77-233 limits assumed: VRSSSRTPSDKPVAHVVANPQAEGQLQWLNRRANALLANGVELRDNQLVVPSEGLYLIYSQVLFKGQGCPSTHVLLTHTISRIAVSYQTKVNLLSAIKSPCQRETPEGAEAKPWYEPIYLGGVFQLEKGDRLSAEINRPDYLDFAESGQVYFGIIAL

[2] = target: recombinant TNFα (soluble; species not stated) (UniProt P01375 77-233); assay: cell-based or functional assay
[3] = target: T2, human TNFα (human, UniProt P01375 77-233); assay: direct ELISA; direct ELISA
[4] = target: T2, human TNFα; assay: indirect sandwich ELISA; indirect sandwich ELISA

| Binder | EC50 [1] | EC50 (parameter C, midpoint of the printed 4-P fit with A 41.3, B 1.84, D 279). Inhibition of TNFα-induced cytotoxicity in A375 cells, luminescence RLU/100. Plot #2 (Tested Sample), solid line. [2] | EC50 [3] | EC50 [4] |
| --- | --- | --- | --- | --- |
| XTMAB-16 (antibody, human IgG1, kappa, The general description says the antibody is sialylated with N-acetylneuraminic acid (Asn 297 in embodiments) and glycosylated at Asn 300; All batches (A-H); also called XTMB-16) heavy: not shown light: DILLTQSPAILSVSPGERVSFSCRASQFVGSSIHWYQQRTNGSPRLLIKYASESMSGIPSRFSGSGSGTDFTLSINTVESEDIADYYCQQSHSWPFTFGSGTNLEVKRTVAAPSVFIFPPSDEQLKSGTASVVCLLNNFYPREAKVQWKVDNALQSGNSQESVTEQDSKDSTYSLSSTLTLSKADYEKHKVYACEVTHQGLSSPVTKSFNRGEC | 0.0485 µg/mL | 0.0145 µg/mL | 0.578 µg/mL | 0.0607 µg/mL |
| Infliximab (antibody, V domains shown) VH: EVKLEESGGGLVQPGGSMKLSCVASGFIFSNHWMNWVRQSPEKGLEWVAEIRSKSINSATHYAESVKGRFTISRDDSKSAVYLQMTDLRTEDTGVYYCSRNYYGSTYDYWGQGTTLTVSS VL: DILLTQSPAILSVSPGERVSFSCRASQFVGSSIHWYQQRTNGSPRLLIKYASESMSGIPSRFSGSGSGTDFTLSINTVESEDIADYYCQQSHSWPFTFGSGTNLEVKR | 0.0443 µg/mL | – | – | – |
